The chains behind the UniProt entries cited, without tags or fusion partners. Residues count along the entry.
UniProt P36544, 23-224 L141G/G175K/Y210F/Y217F: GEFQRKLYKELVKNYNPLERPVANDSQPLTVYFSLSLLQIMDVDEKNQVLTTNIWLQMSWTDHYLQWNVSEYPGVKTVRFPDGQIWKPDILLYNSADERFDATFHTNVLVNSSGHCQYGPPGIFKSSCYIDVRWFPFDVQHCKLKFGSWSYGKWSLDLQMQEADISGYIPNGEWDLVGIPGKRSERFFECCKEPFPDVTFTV

In PMC12527922, “Cocaine chemogenetics blunts drug-seeking by synthetic physiology” (Nature, 2025):

Biological target: coca-5HT3 (α7(L141G,G175K,Y210F,Y217F)–5HT3) (Homo sapiens, UniProt P36544, G175K/L141G/Y210F/Y217F)
Assay: Membrane potential assay, coca-5HT3 in HEK293
Details: coca5HT3; [Nicotine] 1000 uM

SMILES: CN1CCC[C@H]1c1cccnc1 [nicotine]
- Response, dose-response replicates (DR 1-4): 0.336
